Target: PbDHODH (Plasmodium berghei, UniProt A0A509AEH5)
Assay: DHODH enzyme inhibition assay, PbDHODH
Format: biochemical, P. berghei
Details: Table 4, IC50 class
Protocol: Briefly, the assay solution contained 100 mM HEPES, pH 8.0, 150 mM NaCl, 10% glycerol, 0.1% Triton X-100, 20 micro molar COQD (coenzyme QD), 200 micro molar L-dihydroorotate, and 120 micro molar DCIP. Reactions are initiated by addition of enzyme to a final concentration in the range of about […] to about 50 nM while maintaining the temperature of a circulating water bath at 25° C.
Assay solutions were prepared as discussed above, except that DCIP is not present and the solution is depleted of oxygen by the inclusion of an oxidase/reductase system, such as, 0.1 mg/ml of glucose oxidase, 0.02 mg/ml catalase and 50 mM glucose. The data obtained is fitted to equation 1, to determine the IC50 values of the representative compounds.

By UniProt entry, the sequences of proteins in these tests, tags left out.
UniProt A0A509AEH5, entry or part of it: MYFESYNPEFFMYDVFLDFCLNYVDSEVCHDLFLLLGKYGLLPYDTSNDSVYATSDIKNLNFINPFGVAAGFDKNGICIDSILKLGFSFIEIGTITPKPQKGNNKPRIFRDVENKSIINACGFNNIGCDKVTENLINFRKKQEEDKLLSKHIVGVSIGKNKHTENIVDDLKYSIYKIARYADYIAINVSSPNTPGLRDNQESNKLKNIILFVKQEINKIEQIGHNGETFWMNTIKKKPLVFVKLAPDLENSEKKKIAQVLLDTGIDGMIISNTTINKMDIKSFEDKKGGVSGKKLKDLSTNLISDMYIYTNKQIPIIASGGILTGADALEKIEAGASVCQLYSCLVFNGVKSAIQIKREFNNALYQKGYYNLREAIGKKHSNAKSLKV

SMILES: Cc1cc(Nc2cccc(Cl)c2)n2ncnc2n1 [drawing 35]
- IC50: > 10 µM
